Laboratory results: ChEMBL document CHEMBL1777764, “Synthesis and evaluation of 1-(1H-indol-3-yl)ethanamine derivatives as new antibacterial agents” (Bioorg Med Chem, 2011)

Tests used:
Klebsiella pneumoniae = settings: ATCC 35657
Enterobacter cloacae = settings: ATCC 13047
Serratia marcescens = settings: CIP 103551
Pseudomonas aeruginosa = settings: CIP 5933
Acinetobacter baumannii = settings: ATCC 19606 = CIP 70.34 = JCM 6841

Measured: MIC

GENTAMICIN
0.5 µg/mL: all assays above
